One compound from ChEMBL document CHEMBL3351252, “Design, synthesis, and structure-activity relationship studies of a series of [4-(4-carboxamidobutyl)]-1-arylpiperazines: insights into structural features contributing to dopamine D3 versus D2 receptor subtype selectivity” (J Med Chem, 2014) can be followed below.

Chains of the proteins cited; added tags and fusions are not shown.
UniProt P35462, whole entry: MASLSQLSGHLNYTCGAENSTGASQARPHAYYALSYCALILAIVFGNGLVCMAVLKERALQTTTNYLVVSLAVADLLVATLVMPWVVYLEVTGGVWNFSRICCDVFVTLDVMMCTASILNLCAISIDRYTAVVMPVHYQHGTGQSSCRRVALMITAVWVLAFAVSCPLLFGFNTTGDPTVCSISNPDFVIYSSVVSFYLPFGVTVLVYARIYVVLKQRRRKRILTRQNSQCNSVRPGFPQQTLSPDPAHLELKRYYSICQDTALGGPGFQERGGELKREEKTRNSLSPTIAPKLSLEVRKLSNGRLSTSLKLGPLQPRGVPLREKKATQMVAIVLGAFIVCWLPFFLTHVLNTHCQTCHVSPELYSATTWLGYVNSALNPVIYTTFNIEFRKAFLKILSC

Test [1] concerns the target T1, D(3) dopamine receptor (Homo sapiens, UniProt P35462). Nature of the test: Displacement of [125I]IABN from human D3R expressed in HEK293 cell membranes by gamma counting method.
The target in test [2] is T1, D(3) dopamine receptor. The experiment in a line: Antagonist activity against D3R in human U2OS cells assessed as inhibition of (+)-PD128907-induced beta-arrestin translocation by beta-galactosidase based beta-arrestin recruitment assay. It is filed as cell-based. (In general: Activated receptors often draw arrestin, which recruitment assays turn into a signal.)

`CC(C)(C)c1nc(N2CCN(CCCCNC(=O)[C@H]3CC[C@H](c4ccccc4)CC3)CC2)cc(C(F)(F)F)n1`: the Ki (in general, the dissociation constant of the complex between target and ligand, obtained from inhibition or displacement) at D(3) dopamine receptor [1] turned out to be 9.4 nM. The IC50 (commonly the midpoint of a concentration-inhibition curve) at D(3) dopamine receptor [2] stood at 6.8 nM.
